The record followed here is patent US7291332B2, “Inflammatory mediator antagonists” (SmithKline Beecham Corporation, priority 1998, dated 2007).

The series relates to Bovine nasal cartilage. In words: Cartilage degradation assay (hydroxyproline/collagen release, MMP1). As to the method: Bovine nasal septum cartilage was held at 4° C. overnight after slaughter. 2 mm diameter discs were cut from 2 mm slices and washed twice in HBSS. Three discs per well of a 24 well plate (Costar) were incubated at 37° C., 5% CO2 for 24 hrs in a 600 μl volume of DMEM (Sigma) containing 25 mM HEPES supplemented with 2 mM glutamine, 100 μg/ml streptomycin, 100 U/ml penicillin and 2.5 μg/ml amphotericin B (cartilage degradation medium, CDM). Cartilage was cultured in quadruplicate wells in either: 600 μl of CDM alone, 2, 10 or 50 ng/ml human recombinant TNFα alone, 10 ng/ml rhOSM alone (R&D systems) or TNFα+OSM and incubated for 7 days at 37° C., 5% CO2. Supernatants were harvested and replaced with fresh medium containing identical test reagents to day 1. […] The cumulative level of OH-proline released into the medium by day 14 was measured and expressed as the percentage of total released as set out below.
Hydroxyproline release was assayed (as a measure of collagen degradation) using a microtitre plate modification of the method in (Bergmann I and loxley R. (1963) Anal. Biochem. 35 1961-1965. Chloramine T (7%) w/v) was diluted 1:4 in acetate citrate buffer (57 g sodium acetate, 37.5 g tri-sodium citrate, 5.5 g citrate acid, 385 ml propan-2-ol per liter water). […] The plate was heated to 65° C. for 35 min, cooled and the absorbance at 560 nm determined. […]

With TNFα: human recombinant TNFα, the collagen release entry (TNFα alone 50 ng/ml, day 14) is on record as “less than 10%”. The “MMP1 secretion (total collagenase activity)” value (day 7, OSM 10 ng/ml, TNFα 50 ng/ml) is given as “neither OSM nor TNFα alone, used at 10 ng/ml or 50 ng/ml, respectively, induced significant MMP1 secretion”.
